Results on one compound are retold here after ChEMBL document CHEMBL2401653, “Synthesis, structure-property relationships and pharmacokinetic evaluation of ethyl 6-aminonicotinate sulfonylureas as antagonists of the P2Y₁₂ receptor” (Eur J Med Chem, 2013).

Sequences of proteins named here, by UniProt entry; tags and fusion partners are left off. A change or cut given only in a name is not applied to a line headed by its entry.
UniProt Q9H244: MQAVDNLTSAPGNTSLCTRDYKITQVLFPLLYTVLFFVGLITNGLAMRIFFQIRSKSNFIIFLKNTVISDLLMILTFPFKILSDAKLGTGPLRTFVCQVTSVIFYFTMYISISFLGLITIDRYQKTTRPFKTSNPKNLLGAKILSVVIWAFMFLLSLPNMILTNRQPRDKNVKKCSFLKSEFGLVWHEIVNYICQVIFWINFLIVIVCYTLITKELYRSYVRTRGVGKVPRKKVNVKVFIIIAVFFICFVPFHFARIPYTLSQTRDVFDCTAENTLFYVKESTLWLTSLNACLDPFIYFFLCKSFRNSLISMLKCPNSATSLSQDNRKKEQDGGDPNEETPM

Assay [1] concerns the target T1, P2Y purinoceptor 12 (Homo sapiens, UniProt Q9H244).
The target of assay [2] is T1, P2Y purinoceptor 12. This is another data set of the same source.

As to `CCOC(=O)c1cc(C#N)c(N2CC(NC(=O)NS(=O)(=O)c3ccc(Cl)s3)C2)nc1C`, the results for the half-inhibitory concentration (IC50) at P2Y purinoceptor 12 [1] and against P2Y purinoceptor 12 [2] were 6.3 nM and 25 nM, respectively.

What is called IC50 is the point on the concentration scale where inhibition reaches its midpoint. Higher therefore signals weaker potency in that assay.
